Results on 1 compound are retold here after PubChem BioAssay AID651952 (The Scripps Research Institute Molecular Screening Center, 2012).

This is a selection; strong and weak results do not stand in their true shares. Active and inactive are the calls of the source.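 How the source made its calls: active means inhibition above the plate's mean compound inhibition plus 3 SD, computed per plate (cut at about 22% in these data); inactive means the rest.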

The assay in a line: reduced calcium signal in Ga16 cells – fluorescence, CHO-Ga16 cells, counter-screen for TAAR1 agonist project (AID 651952).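 Further: 0% = EC80 ATP with DMSO and 100% = DMSO wells without ATP.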 As to conditions: CHO-Ga16 ATP-induced calcium, Fluo-8 fluorescence; at 3 µM; stronger effect = higher value. The essentials:
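Test system: parental CHO cells stably overexpressing Gα16, lacking hTAAR1; Timing: 17–24 h seeding, dye 75 min 37 °C, 30 min RT; Signal: Fluo-8 calcium dye fluorescence, excitation 470–495 nm, emission 515–575 nm; Controls: DMSO-only and ATP-stimulated wells; Read-out: % inhibition of ATP-evoked calcium signal.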
As to `CP(=O)(OC12CC3CC(CC(C3)C1)C2)OC12CC3CC(CC(C3)C1)C2`, the inhibition was inactive: -0.18%.
